This note sets out measurements from patent publication US6844190B2, “St-B17 serotonin receptor” (The United States of America as represented by the …, priority 1992, dated 2005).

The chains behind the UniProt entries cited, without tags or fusion partners. A line that says so, or that is headed by a name, gives the form on record, which may keep a tag or linker.
UniProt P31388, with tags, fused parts or gaps L57V: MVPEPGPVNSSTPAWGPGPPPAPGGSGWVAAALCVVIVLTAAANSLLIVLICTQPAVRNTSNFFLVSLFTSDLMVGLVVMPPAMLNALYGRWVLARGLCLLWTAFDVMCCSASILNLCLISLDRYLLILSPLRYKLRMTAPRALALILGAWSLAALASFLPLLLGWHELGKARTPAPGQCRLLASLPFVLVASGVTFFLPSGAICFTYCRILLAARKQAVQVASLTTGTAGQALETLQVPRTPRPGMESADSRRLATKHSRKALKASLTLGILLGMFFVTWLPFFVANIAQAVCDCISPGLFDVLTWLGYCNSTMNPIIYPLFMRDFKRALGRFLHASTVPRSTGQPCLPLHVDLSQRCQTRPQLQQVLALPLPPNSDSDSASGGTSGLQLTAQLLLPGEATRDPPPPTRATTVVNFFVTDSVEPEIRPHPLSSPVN

The target of assay [1] is T1, St-B17 stably expressed in HEK-293 cells (Rattus norvegicus, UniProt P31388, L57V).
T1 construct: expressed in transfected cells
Kind of assay: cAMP accumulation in intact HEK-293 cells stably expressing St-B17. The assay is classed as cell-based. As to conditions: 10 μM final concentration, FIG. 5. On the procedure: Human Embryonic Kidney cells (HEK 293 available from the ATCC) were stably co-transfected in 150mm dishes by the CaPO4 technique with 30 μg of pSRα-B17 and 3 μg of pMam-neo (INVITROGEN). These HEK 293 cells were then subjected to selection with 600 μg/ml genetecin (G418) (GIBCO). The resistant colonies were collected and screened for receptor expression by [^125I]-LSD binding as described in Example 6.
Intracellular cAMP levels were determined after a 5 minute incubation of intact cells with various test compounds at 37° C. in the presence of the cAMP phosphodiesterase inhibitor RO-20-1724, using a modification of a previously described cAMP assay (Monsma, F. J., Jr., Barton, A. C., and Sibley, D. R. (1990) J. Neurochemistry 54, 1200-1207) wherein the adrenal cAMP binding protein was replaced with 0.8 mg/ml protein kinase A in water.
(cAMP levels reflect the balance of adenylyl cyclase and phosphodiesterase activity.)

The target of assay [2] is T2, St-B17 serotonin receptor (Rattus norvegicus, UniProt P31388).
T2 construct: expressed in transfected cells; host or cells: Cos-7 cells, transient transfection, crude membranes
Kind of assay: [125I]-LSD competition binding, Cos-7 cell membranes expressing St-B17. As to conditions: 0.5 nM [125I]-LSD, Cos-7 membranes, n=3, Cheng-Prussoff from IC50; read-out: Ki vs. [125I]-LSD, Mean ± SEM. On the procedure: (§1) This experiment was performed on Cos-7 cell membranes expressing the St-B17 serotonin receptor.

The target of assay [3] is T3, St-B17 serotonin receptor (Rattus norvegicus, UniProt P31388, L57V). The description is as above. More on the design: expressed in transfected cells; host or cells: Cos-7 cells, transient transfection, crude membranes. As to conditions: qualitative statement. On the procedure: as §1
Assay [4] has as its target T3, St-B17 serotonin receptor. Kind of assay: [3H]-5-HT competition binding, Cos-7 cell membranes expressing St-B17. The arrangement: expressed in transfected cells; host or cells: Cos-7 cells, transient transfection, crude membranes. The conditions noted are these: 5 nM [3H]-5-HT, Cos-7 membranes, n=3, Cheng-Prussoff from IC50; read-out: Ki vs. [3H]-5-HT, Mean ± SEM.

Consider `CSc1ccc2c(c1)C(N1CCN(C)CC1)Cc1ccccc1S2` (stereo not drawn) [Methiothepin], for which, in assay [1], the “effect on cAMP levels on their own (in words)” value was “no significant effect on cAMP levels”, the “effect on the cAMP response elicited by 5-HT (in words)” value is on record as “substantially inhibit the response elicited by 5-HT” and the “functional classification at St-B17 receptor” value is reported as “antagonists”. The Ki in assay [2] was 1.84 ± 0.23 nM. Also, the “affinity for St-B17 (in words)” value in assay [3] is “relatively high affinity”. For the same molecule, in assay [4], the Ki amounted to 0.39 ± 0.063 nM.

As a reminder, the Ki is the dissociation constant of the complex between target and ligand, obtained from inhibition or displacement.
